Results reported in BindingDB's records for doi:10.7270/Q2NC5ZHH (Ambit Biosciences, 2008).

Chains of the proteins cited; added tags and fusions are not shown.
UniProt P49759, whole entry R432A: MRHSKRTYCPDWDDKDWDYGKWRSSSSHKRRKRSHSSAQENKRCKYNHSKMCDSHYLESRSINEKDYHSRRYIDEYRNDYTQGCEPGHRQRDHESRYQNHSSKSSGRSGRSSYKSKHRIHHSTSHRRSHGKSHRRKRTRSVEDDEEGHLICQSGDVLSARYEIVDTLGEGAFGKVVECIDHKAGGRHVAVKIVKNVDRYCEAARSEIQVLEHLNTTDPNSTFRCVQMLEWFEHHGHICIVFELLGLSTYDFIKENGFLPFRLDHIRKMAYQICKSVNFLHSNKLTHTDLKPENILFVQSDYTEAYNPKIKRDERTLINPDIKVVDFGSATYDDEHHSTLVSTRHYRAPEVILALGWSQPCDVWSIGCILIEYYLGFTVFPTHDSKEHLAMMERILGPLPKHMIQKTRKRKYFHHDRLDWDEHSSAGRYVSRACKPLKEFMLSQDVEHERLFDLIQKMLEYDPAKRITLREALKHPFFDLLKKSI

Target: Dual specificity protein kinase CLK1 [R432A] (Homo sapiens, UniProt P49759, R432A)
Details: Kd (nM)

With `CCOc1cc2ncc(C#N)c(Nc3ccc(F)c(Cl)c3)c2cc1NC(=O)/C=C/CN(C)C` [(E)-N-[4-(3-chloro-4-fluoroanilino)-3-cyano-7-ethoxyquinolin-6-yl]-4-(dimethylamino)but-2-enamide] the Kd was 3300 nM.
